Results reported in the Kinase Knowledgebase extract (Sharma et al. 2016).

Sequences of proteins named here, by UniProt entry; tags and fusion partners are left off. A change or cut given only in a name is not applied to a line headed by its entry.
UniProt O00329: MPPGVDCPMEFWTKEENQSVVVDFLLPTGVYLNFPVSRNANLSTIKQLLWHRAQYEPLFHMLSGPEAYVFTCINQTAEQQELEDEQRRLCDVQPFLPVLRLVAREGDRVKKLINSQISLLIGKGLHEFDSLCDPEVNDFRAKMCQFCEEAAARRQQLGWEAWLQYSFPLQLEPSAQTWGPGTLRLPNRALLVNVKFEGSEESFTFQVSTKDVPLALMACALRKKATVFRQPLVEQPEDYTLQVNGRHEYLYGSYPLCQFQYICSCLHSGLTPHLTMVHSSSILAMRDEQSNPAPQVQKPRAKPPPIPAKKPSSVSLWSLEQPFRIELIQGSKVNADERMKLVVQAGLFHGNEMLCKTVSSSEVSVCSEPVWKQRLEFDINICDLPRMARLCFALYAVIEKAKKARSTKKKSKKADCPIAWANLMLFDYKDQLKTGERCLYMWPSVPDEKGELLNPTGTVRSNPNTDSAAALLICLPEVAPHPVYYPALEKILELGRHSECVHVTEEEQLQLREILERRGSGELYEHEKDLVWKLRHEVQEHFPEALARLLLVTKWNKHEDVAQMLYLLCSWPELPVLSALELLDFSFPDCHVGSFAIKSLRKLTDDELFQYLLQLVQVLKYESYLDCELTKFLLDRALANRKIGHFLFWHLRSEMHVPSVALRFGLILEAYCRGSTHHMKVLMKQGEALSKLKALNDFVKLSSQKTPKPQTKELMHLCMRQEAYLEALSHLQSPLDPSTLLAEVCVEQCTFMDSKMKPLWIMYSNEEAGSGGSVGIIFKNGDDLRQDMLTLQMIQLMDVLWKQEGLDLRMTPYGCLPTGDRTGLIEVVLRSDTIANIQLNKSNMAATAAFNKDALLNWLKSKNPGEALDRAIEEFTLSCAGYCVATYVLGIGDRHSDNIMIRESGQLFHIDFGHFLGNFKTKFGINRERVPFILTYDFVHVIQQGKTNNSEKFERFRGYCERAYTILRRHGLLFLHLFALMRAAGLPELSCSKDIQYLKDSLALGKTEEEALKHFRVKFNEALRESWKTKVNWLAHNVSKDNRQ

Biological target: PIK3CD (Human) (UniProt O00329)
Assay: Assessment of PIK3CD Kinase Activity

| IC50 [nM] | Compound |
| --- | --- |
| < 50 | CC(Nc1ncnc2[nH]cnc12)c1cc(Cl)c2ccnnc2c1-c1cccc(F)c1 (configuration not stated) |
| < 50 | C[C@H](Nc1ncnc2[nH]cnc12)c1cc(Cl)c2ccnnc2c1-c1cccc(F)c1 |
